{"source": "paper PMC9308754", "about": "(Chembiochem, 2022)", "key": {"SK‐N‐BE(2)‐C cells": {"test_system": "SK‐N‐BE(2)‐C cells", "test": "LysoTracker assay, flow cytometry", "format": "cell-based", "conditions": "1 μM"}, "HDAC10": {"biological_target": "T1, HDAC10 (Homo sapiens, UniProt Q969S8)", "T1 sequence (Q969S8 1-669)": "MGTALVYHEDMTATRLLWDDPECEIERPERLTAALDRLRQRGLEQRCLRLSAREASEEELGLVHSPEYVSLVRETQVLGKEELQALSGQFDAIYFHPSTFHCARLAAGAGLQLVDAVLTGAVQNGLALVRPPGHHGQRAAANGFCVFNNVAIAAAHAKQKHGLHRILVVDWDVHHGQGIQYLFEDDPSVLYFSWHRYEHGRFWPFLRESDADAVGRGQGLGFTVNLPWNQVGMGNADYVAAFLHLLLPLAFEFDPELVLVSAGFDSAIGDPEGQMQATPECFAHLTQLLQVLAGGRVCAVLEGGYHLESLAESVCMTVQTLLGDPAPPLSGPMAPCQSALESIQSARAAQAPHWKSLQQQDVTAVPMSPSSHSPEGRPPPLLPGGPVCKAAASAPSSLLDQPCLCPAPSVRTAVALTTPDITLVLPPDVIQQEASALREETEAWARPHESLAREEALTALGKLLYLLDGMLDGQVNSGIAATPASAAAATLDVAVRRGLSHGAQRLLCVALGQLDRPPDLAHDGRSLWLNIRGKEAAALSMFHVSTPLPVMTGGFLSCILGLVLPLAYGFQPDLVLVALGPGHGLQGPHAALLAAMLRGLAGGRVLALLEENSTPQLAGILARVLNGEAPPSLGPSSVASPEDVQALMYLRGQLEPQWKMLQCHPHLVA", "conditions": "read-out: BRET assay (EC50); in‐cellulo; ref 32 (Géraldy et al.); cited from earlier work"}}, "data": [{"compound": "O=C(CCCCCCC(=O)Nc1ccccc1)NO", "note": "[vorinostat]", "values": [{"measurement": "LysoTracker effect (relative signal intensity as compared to control)", "setting": "SK‐N‐BE(2)‐C cells", "value": "2.0±0.03"}, {"measurement": "EC50", "setting": "HDAC10", "value": 630, "unit": "nM"}]}]}
